Test results published in ChEMBL document CHEMBL3817767, “OpenGrowth: An Automated and Rational Algorithm for Finding New Protein Ligands” (J Med Chem, 2016).

Biological target: Protease (Human immunodeficiency virus 1, UniProt Q9YQ12)
Assay: Binding affinity to HIV1 protease

Compound `Cc1cccc(C)c1OCC(=O)N[C@@H](Cc1ccccc1)[C@@H](O)C[C@H](Cc1ccccc1)NC(=O)[C@H](C(C)C)N1CCCNC1=O` [LOPINAVIR] has a Kd of 1.3 pM.
